According to patent publication US5780474A, “3-(piperid-4-yl)-1,2-benzisoxazole and 3-(piperazin-4-yl)-1,2-benzisoxazole compounds” (Adir et Compagnie, priority 1996, dated 1998):

Assay: Induction of catalepsy in the rat
Conditions: in vivo, sc

Cc1nc2n(c(=O)c1CCN1CCC(c3noc4cc(F)ccc34)CC1)CCCC2 [risperidone]
ED50 at 1 h: 1.2 mg/kg
